Ab-91 heavy chain CDR variants: yeast mating affinities

Binding partner: SARS-CoV-2 spike HR2 peptide, sequence PDVDLGDISGINAS.

Parent: Ab-91, a human scFv built as VL, the linker GGGGSGGGGSGGGGS, VH. Only the CDRs of the heavy chain vary.
VL: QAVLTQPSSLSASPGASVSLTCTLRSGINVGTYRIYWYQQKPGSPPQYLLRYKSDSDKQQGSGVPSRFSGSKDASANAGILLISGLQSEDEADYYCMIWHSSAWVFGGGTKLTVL
VH: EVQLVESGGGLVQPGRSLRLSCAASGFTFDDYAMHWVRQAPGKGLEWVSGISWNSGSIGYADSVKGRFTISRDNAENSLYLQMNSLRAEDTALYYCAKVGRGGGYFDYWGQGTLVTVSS

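The starting antibody came from a phage panning campaign against this peptide. The library (AAYL51) carries one to three amino acid substitutions per variant, with no insertions or deletions. Affinity was read by AlphaSeq, a pooled yeast mating assay with surface-displayed partners. Pairs that bind mate more often; barcode pairs of the diploids are counted by sequencing. The ratio of observed to expected reads was calibrated, replicate by replicate, on BCL2-family standards whose Kd was known from biolayer interferometry. Each pool was mated in three replicate cultures.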

The parent's heavy chain CDRs are GFTFDDYAMH, GISWNSGSIGYADSVK, VGRGGGYFDY; each variant's own CDRs replace them letter for letter. Every variant below is changed at R101 of the VH (sequential numbering). The Kd shown is the geometric mean over detected replicates; a lower Kd is a better binder. "nd" marks a missing value. The strain was present, yet no cells mated with the target were sequenced in any replicate, which points to weak or no binding. Parent in this assay: reference entry 72 nM, copy in this library 7.5 nM.

For GFSFDDYAMH | GISWNSGSIGVADSVK | VGHGGGYFDY, the assay gave 1.2 µM (3 of 3 replicates; controls 3 of 9).
For GFTFDDYAMW | GISWNPGSIGYADSVK | VGFGGGYFDY, the assay gave 620 µM (2 of 3 replicates; controls 5 of 9).
For GFTFDDYAMH | GIMWNSGSIGYADSVK | VGIAGGYFDY, the assay gave nd (0 of 3 replicates; controls 1 of 9).
For GFTFDYYAMH | GISWNSGSIGYADSVK | VGCGPGYFDY, the assay gave nd (0 of 3 replicates; controls 0 of 9).
For GFTFDDYTMH | GISWNSGSIGYADSVK | VGHGGGYFDY, the assay gave nd (0 of 3 replicates; controls 1 of 9).
For GFTFDDYAMH | GISWNSGSIGYADSLQ | VGIGGGYFDY, the assay gave nd (0 of 3 replicates; controls 0 of 9).
For GFTFDDYAMH | GISWNSGSIRYADSVK | VGTGGGYQDY, the assay gave nd (0 of 3 replicates; controls 1 of 9).
For GFTFDDYAMH | GISWNSGYIGYADSVK | VGHGGGYFDY, the assay gave 5.7 µM (3 of 3 replicates; controls 5 of 9).
For GFTFDDYAMH | GISWNSGSIGYADSVK | VWVGRGYFDY, the assay gave 35 nM (3 of 3 replicates; controls 5 of 9).
For GFTFDDYAMH | GISWNSGSIGYADSVK | VGGGGPCFDY, the assay gave 7.6 nM (3 of 3 replicates; controls 1 of 9).
For GFTFDDYAMH | GISWCSGSIGYADSVK | VGNGGGYFDY, the assay gave 18 µM (1 of 3 replicates; controls 3 of 9).
For GFTFDDYAMH | GISWNSGSIGYNDSVK | VGIGHGYFDY, the assay gave nd (0 of 3 replicates; controls 0 of 9).
For GFRFDDYAMH | GISWNSGSIGYADSVK | VGAGCGYFDY, the assay gave 21 µM (1 of 3 replicates; controls 3 of 9).
For GFTFDDYAMH | GISWNDGSIGYADSVK | VGVGGGQFDY, the assay gave 68 µM (1 of 3 replicates; controls 5 of 9).
For GFTFDDYAAH | GISWNSGSIGYADSVK | VKCGGGYFDY, the assay gave 120 µM (2 of 3 replicates; controls 2 of 9).
For GFTFDDYAMH | GISNESGSIGYADSVK | VGLGGGYFDY, the assay gave 63 µM (2 of 3 replicates; controls 7 of 9).
For GFTFCDYAMH | GISWNSGSIGYADSVR | VGLGGGYFDY, the assay gave 180 nM (2 of 3 replicates; controls 0 of 9).
For GFTFDDYAMH | GISWNSGSIGYASSVK | VGAGGGYFDY, the assay gave 18 nM (3 of 3 replicates; controls 0 of 9).
For GFTFDDYAMH | GISFNSGSIGYADSVK | FGYGGGYFDY, the assay gave 400 µM (2 of 3 replicates; controls 1 of 9).
For GFTFDDYAMH | GISWNSGSIGYADSVK | VGLTGPYFDY, the assay gave 32 µM (1 of 3 replicates; controls 1 of 9).
For GFTFDDYAMH | GISWNSGSIGYADSVK | VGDGGGYFDY, the assay gave 10 nM (3 of 3 replicates; controls 6 of 9).
For GFTFDDYAMH | GISWNSSSIGYADSVK | VGAGTGYFDY, the assay gave nd (0 of 3 replicates; controls 0 of 9).
For GETFDDYAMR | GISWNSGSIGYADSVK | VGYGGGYFDY, the assay gave 56 µM (2 of 3 replicates; controls 4 of 9).
For GFTYDDYAMD | GISWNSGSIGYADSVK | VGNGGGYFDY, the assay gave 120 µM (2 of 3 replicates; controls 2 of 9).
For GFTFDDYAMH | GISWHSGSIGYADSVK | VGCGGGYFDY, the assay gave 170 nM (3 of 3 replicates; controls 2 of 9).
For GFTFDDYAMH | GISWNSGSIGYADSVK | VRTGGGYDDY, the assay gave 25 µM (1 of 3 replicates; controls 0 of 9).
For GFTFDDYAMH | GISWNSGSIGYADSVK | VGCCGEYFDY, the assay gave 1.8 µM (1 of 3 replicates; controls 2 of 9).
For GFTFDDVAMH | GISWNSGSIGYADSVK | VGQGGGYIDY, the assay gave nd (0 of 3 replicates; controls 1 of 9).
For GFTFDDYAMD | GISWNSGSIGYIDSVK | VGLGGGYFDY, the assay gave 8.9 µM (1 of 3 replicates; controls 1 of 9).
For GFTFDDYAMH | GISWNSGSIGYADSRK | VGSGGGYFKY, the assay gave 44 µM (1 of 3 replicates; controls 1 of 9).
For GFTFDDYAMH | GISWNSTSIGYADSVK | VGWGGGYLDY, the assay gave 160 µM (1 of 3 replicates; controls 3 of 9).
For GFTFVDYAMH | GISWNSGSIGYADSVK | VGVGGHYFDY, the assay gave 25 µM (1 of 3 replicates; controls 1 of 9).
For GFTFDDYAMH | GISWNSGSIGYADSVK | VGGGYGYFDN, the assay gave nd (0 of 3 replicates; controls 0 of 9).
For GFTFDDDAMK | GISWNSGSIGYADSVK | VGKGGGYFDY, the assay gave nd (0 of 3 replicates; controls 2 of 9).
For GFTFDDRAMH | GISWNSGSIGYADSVK | VGWGFGYFDY, the assay gave 2.5 µM (1 of 3 replicates; controls 0 of 9).
For GFTFDDYAMH | GISWNSGSMGLADSVK | VGFGGGYFDY, the assay gave 8.1 µM (3 of 3 replicates; controls 2 of 9).
For GFTFDDSAMH | GISWNSGSIGYADSVK | FGKGGGYFDY, the assay gave nd (0 of 3 replicates; controls 0 of 9).
For GFTFDNYAMH | GISWNSGSIGYASSVK | VGCGGGYFDY, the assay gave 4.1 nM (3 of 3 replicates; controls 2 of 9).
For GFTFDDYAMH | GISWNSGSQGYSDSVK | VGSGGGYFDY, the assay gave 9.1 nM (3 of 3 replicates; controls 4 of 9).
For GFGFDDYAMH | GISWNSKSIGYADSVK | VGMGGGYFDY, the assay gave 1.9 µM (3 of 3 replicates; controls 2 of 9).
For GFTFDDYIMH | GISWNSGSIGYADSVK | VGEGNGYFDY, the assay gave 2.4 µM (1 of 3 replicates; controls 1 of 9).

The opening 5 entries, copied out:

Variant GFSFDDYAMH | GISWNSGSIGVADSVK | VGHGGGYFDY showed 1.2 µM (3 of 3 replicates; controls 3 of 9).
Variant GFTFDDYAMW | GISWNPGSIGYADSVK | VGFGGGYFDY showed 620 µM (2 of 3 replicates; controls 5 of 9).
Variant GFTFDDYAMH | GIMWNSGSIGYADSVK | VGIAGGYFDY showed nd (0 of 3 replicates; controls 1 of 9).
Variant GFTFDYYAMH | GISWNSGSIGYADSVK | VGCGPGYFDY showed nd (0 of 3 replicates; controls 0 of 9).
Variant GFTFDDYTMH | GISWNSGSIGYADSVK | VGHGGGYFDY showed nd (0 of 3 replicates; controls 1 of 9).

As a blank, each scFv also met three strains without target: over library AAYL51, 21% of these pairings were detected, typically at 34 µM and seldom below 1.8 µM. The control count says in how many pairings with the empty strains this scFv gave a signal.

Source: Engelhart et al. 2022 (doi:10.1038/s41597-022-01779-4), MIT Lincoln Laboratory and A-Alpha Bio; data file from the FLAb repository.